Earlier results on one substance are cited in paper PMC11241800.

Among the targets are plasmin (Homo sapiens) (UniProt P00747); MASP-2 (Homo sapiens) (UniProt O00187); thrombin (Homo sapiens) (UniProt P00734).

One may read the Ki as a dissociation constant, usually derived from enzyme kinetics or from competition with a known ligand. With aprotinin (from UniProt P00974), the Ki in the data set with plasmin (Homo sapiens) is 0.09 nM; with MASP-2 (Homo sapiens), 150 nM; with thrombin (Homo sapiens), 61000 nM.
